Patent publication EP4840855A1, “SULFONAMIDE DERIVATIVE, PREPARATION METHOD THEREFOR AND USE THEREOF” (dated 2026)

Amino acid sequences for entries named in this document (tags omitted).
UniProt Q9NRF8, whole entry: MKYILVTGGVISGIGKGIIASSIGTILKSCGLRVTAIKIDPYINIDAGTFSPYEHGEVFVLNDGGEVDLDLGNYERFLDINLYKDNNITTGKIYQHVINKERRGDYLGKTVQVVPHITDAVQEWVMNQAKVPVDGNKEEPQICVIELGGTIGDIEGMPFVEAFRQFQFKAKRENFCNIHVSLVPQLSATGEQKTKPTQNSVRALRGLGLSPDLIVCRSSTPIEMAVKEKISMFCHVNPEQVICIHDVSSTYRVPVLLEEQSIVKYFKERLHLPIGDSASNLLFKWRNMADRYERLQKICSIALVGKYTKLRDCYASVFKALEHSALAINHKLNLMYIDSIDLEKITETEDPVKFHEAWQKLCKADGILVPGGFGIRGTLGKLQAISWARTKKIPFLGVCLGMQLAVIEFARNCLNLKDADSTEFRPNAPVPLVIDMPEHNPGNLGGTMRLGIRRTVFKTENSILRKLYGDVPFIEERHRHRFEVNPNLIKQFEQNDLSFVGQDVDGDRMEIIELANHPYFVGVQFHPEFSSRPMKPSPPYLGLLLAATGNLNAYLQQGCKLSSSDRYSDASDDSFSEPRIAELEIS
UniProt P17812, whole entry: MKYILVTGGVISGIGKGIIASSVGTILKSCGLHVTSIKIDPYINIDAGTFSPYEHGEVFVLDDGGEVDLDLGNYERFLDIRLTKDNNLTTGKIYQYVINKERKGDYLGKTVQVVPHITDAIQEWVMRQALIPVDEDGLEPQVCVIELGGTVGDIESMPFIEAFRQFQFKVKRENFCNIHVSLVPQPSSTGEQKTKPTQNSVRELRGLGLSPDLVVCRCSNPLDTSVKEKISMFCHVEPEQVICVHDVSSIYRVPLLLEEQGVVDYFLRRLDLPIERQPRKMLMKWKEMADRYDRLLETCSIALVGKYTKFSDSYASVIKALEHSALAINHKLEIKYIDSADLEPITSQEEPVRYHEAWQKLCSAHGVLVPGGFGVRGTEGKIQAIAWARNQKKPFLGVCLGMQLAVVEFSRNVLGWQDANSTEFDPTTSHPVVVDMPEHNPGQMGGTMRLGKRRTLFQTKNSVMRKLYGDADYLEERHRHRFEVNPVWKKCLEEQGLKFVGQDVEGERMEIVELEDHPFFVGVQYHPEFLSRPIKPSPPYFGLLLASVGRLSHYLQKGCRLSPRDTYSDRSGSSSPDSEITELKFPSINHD

Legend:
[1] = tested on: Jurkat (Clone E6-1) cells; test: Inhibition on Jurkat cell proliferation (CellTiter-Glo cell viability); conditions: 72 hours culture
Method: (§1) The following method was used to determine the effect of the compounds of the present disclosure on Jurkat cell proliferation. Jurkat (Clone E6-1) cells were purchased from the Cell Resource Center of Shanghai Institutes for Biological Sciences, Chinese Academy of Sciences, and were cultured in RPMI 1640 medium containing 10% fetal bovine serum, 100 U penicillin, and 100 µg/mL streptomycin. Cell viability was measured using a CellTiter-Glo® Luminescent Cell Viability Assay kit (Promega, catalog number G7573).
The experiment was performed according to the kit's manual, briefly summarized as follows: test compounds were first dissolved in DMSO to prepare 10 mM stock solutions, which were then diluted with medium to prepare test samples. The final concentration range of the compounds was from 10000 nM to 1.52 nM. Cells in the logarithmic growth phase were seeded into a 96-well cell culture plate at a density of 1000 cells per well, and test compounds were added. The cells were cultured in a 37°C CO2 incubator for 72 hours. After culturing, 50 µL of CellTiter-Glo detection reagent was added to each well, the plate was shaken for 5 minutes, and allowed to stand for 10 minutes. The luminescence of each well was then measured using a microplate reader in Luminescence mode. The percentage inhibition at each concentration point was calculated by comparison with the control group (0.1% DMSO). Nonlinear regression analysis of compound concentration logarithm versus inhibition rate was performed using GraphPad Prism 9 software to obtain the IC50 values of the compounds for inhibiting cell proliferation, as shown in Table 1. Table 1 IC50 Data for Inhibition on Jurkat Cell Proliferation by the Compounds of the Present Disclosure

[2] = Pharmacokinetic testing in mice (plasma concentration by LC-MS/MS); conditions: ICR mice, male, Oral (10 mg/kg), fasted overnight
Method: ICR mice were used as test animals. Plasma concentrations of the test compounds at different time points were measured by LC/MS/MS after intragastrical administration of the reference compound STP-B and the compounds of the present disclosure, and the pharmacokinetic characteristics of the compounds of the present disclosure in mice were studied.
ICR mice, male, 30.8 to 38.0 g, purchased from Vital River Laboratory Animal Technology Co., Ltd.
An appropriate amount of the test compound was weighed, and an appropriate amount of DMA (N,N-dimethylacetamide), 30% Solutol HS15 (30% polyethylene glycol-15 hydroxystearate), and saline were added sequentially, mixed by ultrasonication and vortexing to prepare a 1 mg/mL dosing formulation. The ratio of DMA:30% Solutol HS15:saline was 10:10:80 (v/v/v).
ICR mice in each test compound injection group (9 mice per group) were fasted overnight and then administered intragastrically (PO, compound dose was 10 mg/kg, dosing volume was 10 mL/kg), and fed 4 hours after dosing.
About 0.1 mL of blood was collected from the orbit before dosing and at 0.25 h, 0.5 h, 1 h, 2 h, 4 h, 8 h, 10 h, and 24 h after dosing, and whole blood samples were placed in anticoagulant tubes containing EDTA-K2. After blood sample collection, samples were placed on ice and centrifuged to separate plasma (centrifugation conditions: 1500 g, 10 minutes). The collected plasma was stored at -40 to -20°C before analysis.
The content of test compounds in mouse plasma after intragastrical administration was determined by LC-MS/MS.

[3] = tested on: BxPC-3 cells (human primary pancreatic cancer cells); test: Inhibition on BxPC-3 cell proliferation (CellTiter-Glo cell viability); conditions: 120 hours culture
Method: as §1, with “the proliferation of BxPC-3 cells (human primary pancreatic cancer cells). BxPC-3” for “Jurkat cell proliferation. Jurkat (Clone E6-1)”, “DMEM” for “RPMI 1640”, “determined” for “measured”, “using” for “using a”
(§2) The experimental method was performed according to the steps in the kit's manual, briefly described as follows: The test compound was first dissolved in DMSO to prepare a 10 mM stock solution, then diluted with medium to prepare test samples, with a final concentration range of the compound from 10000 nM to 1.52 nM. Cells in logarithmic growth phase were seeded into a 96-well cell culture plate at a density of 1000 cells per well, then the test compounds were added, and the cells were cultured in a 37°C CO2 incubator for 120 hours. After culture was completed, 50 µL of CellTiter-Glo detection reagent was added to each well, the plate was shaken for 5 minutes, then allowed to stand for 10 minutes, and then the luminescence value of each well of the sample was read on a microplate reader using Luminescence mode. The percentage inhibition rates of the compounds at each concentration point were calculated by comparing with the value of a control group (0.1% DMSO). Then nonlinear regression analysis was performed on compound concentration logarithm-inhibition rate in GraphPad Prism 9 software to obtain the IC50 values of the compounds for inhibiting cell proliferation, as shown in Table 4. Table 4 IC50 data for inhibition on BxPC-3 cell proliferation by the compounds of the present disclosure

[4] = tested on: MIA PaCa-2 cells (human pancreatic cancer cells); test: Inhibition of MIA PaCa-2 cell proliferation (CellTiter-Glo cell viability); conditions: 120 hours culture
Method: as §1, with “the proliferation of MIA PaCa-2 cells (human pancreatic cancer cells). MIA PaCa-2” for “Jurkat cell proliferation. Jurkat (Clone E6-1)”, “DMEM” for “RPMI 1640”, “serum, 2.5% heat-inactivated horse serum, 1% sodium pyruvate (Gibco, catalog number 11360070),” for “serum,”, “determined” for “measured”, “using” for “using a”
as §2, with “5.” for “4.”, “5” for “4”, “of MIA PaCa-2” for “on BxPC-3”

[5] = target: human cytidine triphosphate synthase 2 (hCTPS2) (Homo sapiens, UniProt Q9NRF8); test: Inhibition on hCTPS2 enzyme activity (ADP-Glo Kinase Assay), selectivity hCTPS1 versus hCTPS2; conditions: for Fold selectivity: Fold selectivity = hCTPS2 IC50/hCTPS1 IC50; for IC50: read-out: hCTPS2 IC50, 40 nM hCTPS2, 120 µM ATP, 160 µM UTP, 60 µM GTP, 100 µM L-Glutamine, 120 minutes
Method: (§3) The following method was used to determine the degree of inhibition on human cytidine triphosphate synthase 2 (hCTPS2) enzyme activity by the compounds of the present disclosure in vitro. ADP-Glo™ Kinase Assay kit (catalog number V9102) from Promega was used. The kit's manual may be referred for a detailed experimental procedure.
The experimental procedure was briefly described as follows: The reaction was performed in a buffer containing 50 mM 4-hydroxyethylpiperazineethanesulfonic acid (HEPES), 10 mM magnesium chloride, 5 mM potassium chloride, 0.01% Pluronic F127, and 4 mM dithiothreitol in a 384-well plate. First, 100 nL of gradient-diluted compound was transferred to a 384-well reaction plate via a nanoliter acoustic liquid transfer system (manufacturer: Labcyte; catalog number: Echo 655), and 2.5 µL of buffer containing hCTPS2 was added, followed by incubation in a 25°C incubator for 10 minutes. Then 2.5 µL of buffer containing ATP and UTP was added, followed by incubation in a 25°C incubator for 10 minutes. Finally, 5 µL of buffer containing GTP and L-glutamine (L-Gln) was added to initiate the reaction. The final reaction system was: 40 nM hCTPS2, 120 µM ATP, 160 µM UTP, 60 µM GTP, 100 µM L-Glutamine, 1% DMSO, with a total assay volume of 10 µL. The reaction was performed for 120 minutes, then 10 µL of ADP-Glo Reagent was added to terminate the reaction, followed by incubation for 1 hour. Then 20 µL of Kinase Detection Reagent was added, and after 1 hour, the chemiluminescence value was recorded on an Envision multilabel microplate detector (manufacturer: PerkinElmer; catalog number: Envision 2104). The percentage inhibition rates of the compounds at each concentration were calculated by comparing the chemiluminescence intensity ratio with a control group (0.1% DMSO). The IC50 value of the compounds were obtained by nonlinear regression analysis of compound concentration logarithm-inhibition rate using GraphPad Prism 5 software.
The fold selectivity between CTPS1 and CTPS2 was calculated according to the following equation: Fold selectivity = hCTPS2 IC50/hCTPS1 IC50 [formula]

[6] = target: human cytidine triphosphate synthase 1 (hCTPS1) (Homo sapiens, UniProt P17812); test: Inhibition on hCTPS1 enzyme activity (ADP-Glo Kinase Assay); conditions: 40 nM hCTPS1, 120 µM ATP, 160 µM UTP, 60 µM GTP, 100 µM L-Glutamine, 120 minutes
Method: as §3, with “1 (hCTPS1)” for “2 (hCTPS2)”, “used in this method.” for “used.”
The experimental procedure was briefly described as follows: The reaction was performed in a buffer containing 50 mM 4-hydroxyethylpiperazineethanesulfonic acid (HEPES), 10 mM magnesium chloride, 5 mM potassium chloride, 0.01% Pluronic F127, and 4 mM dithiothreitol in a 384-well plate. First, 100 nL of gradient-diluted compound was transferred to the 384-well plate via a nanoliter acoustic liquid transfer system (manufacturer: Labcyte; catalog number: Echo 655), and 2.5 µL of buffer containing hCTPS1 was added, followed by incubation in a 25°C incubator for 10 minutes. Then 2.5 µL of buffer containing ATP and UTP was added, followed by incubation in a 25°C incubator for 10 minutes. Finally, 5 µL of buffer containing GTP and L-glutamine (L-Gln) was added to initiate the reaction. The final reaction system was: 40 nM hCTPS1, 120 µM ATP, 160 µM UTP, 60 µM GTP, 100 µM L-Glutamine, 1% DMSO, with a total assay volume of 10 µL. The reaction was performed for 120 minutes, then 10 µL of ADP-Glo Reagent was added, followed by incubation for 1 hour. Then 20 µL of Kinase Detection Reagent was added, and after 1 hour, the chemiluminescence value was recorded on a Microbeta microplate reader (manufacturer: PerkinElmer; catalog number: Envision). The percentage inhibition rates of the compounds at each concentration were calculated by comparing the chemiluminescence intensity ratio with a control group (0.1% DMSO). The IC50 value of the compounds were obtained by nonlinear regression analysis of compound concentration logarithm-inhibition rate using GraphPad Prism 5 software, as shown in Table 2. Table 2 IC50 data for inhibition on hCTPS1 enzyme activity by the compounds of the present disclosure

For `CCOc1cncc(-c2ccc(NC(=O)C3(c4nccc(NS(=O)(=O)C5CC5)n4)CC4CC4C3)nc2)n1` (centres unmarked), the IC50 [1] was 2.49 nM, the “AUC AUC0-1(ng·h/mL)” value [2] was 138092 ng·h/mL and the “Half-life T1/2” value [2] was 3.32 h. For the same molecule, the “Plasma concentration Cmax” value [2] was 34464 ng/mL, the IC50 [3] was 9.64 nM and the IC50 [4] was 39.7 nM.
In the case of `CCOc1cncc(-c2ccc(NC(=O)C3(c4cc(NS(=O)(=O)C5CC5)ccn4)CC4CC4C3)c(F)c2)n1` (centres unmarked), the IC50 [1] is reported as 7.24 nM, the “AUC AUC0-1(ng·h/mL)” value [2] is reported as 106895 ng·h/mL and the “Half-life T1/2” value [2] is reported as 1.06 h. For the same molecule, the “Plasma concentration Cmax” value [2] was 28222 ng/mL, the IC50 [3] was 5.96 nM and the IC50 [4] was 35.5 nM.
Molecule `CCOc1cncc(-c2ccc(NC(=O)C3(c4cc(NS(=O)(=O)C5CC5)ccn4)CC4CC4C3)cc2)n1` (centres unmarked) has an IC50 [1] of 1.58 nM, a Fold selectivity [5] of 1000 and an IC50 [5] of 6020 nM. For the same molecule, the “AUC AUC0-1(ng·h/mL)” value [2] was 125552 ng·h/mL, the “Half-life T1/2” value [2] was 1.87 h and the “Plasma concentration Cmax” value [2] was 27571 ng/mL. It also gave an IC50 [6] of 5.6 nM.
For `CCOc1cncc(-c2ccc(NC(=O)C3(c4cc(NS(=O)(=O)C5CC5)ccn4)CC4CC4C3)nc2)n1` (centres unmarked), the IC50 [1] was 8.81 nM, the “AUC AUC0-1(ng·h/mL)” value [2] was 188312 ng·h/mL and the “Half-life T1/2” value [2] was 2.29 h. For the same molecule, the “Plasma concentration Cmax” value [2] was 26392 ng/mL, the IC50 [3] was 1.54 nM and the IC50 [4] was 15.7 nM.
With `CCOc1cncc(-c2ccc(NC(=O)C3(c4nccc(NS(=O)(=O)C5CC5)n4)CC4CC4C3)cc2)n1` (centres unmarked) the IC50 [1] was 14.2 nM, the Fold selectivity [5] was 150 and the IC50 [5] was 766 nM. For the same molecule, the “AUC AUC0-1(ng·h/mL)” value [2] was 59700 ng·h/mL, the “Half-life T1/2” value [2] was 2.27 h and the “Plasma concentration Cmax” value [2] was 20300 ng/mL. It also gave an IC50 [6] of 5.2 nM.
